From PMC9898191 (Nature chemical biology, 2022)

What was measured:
[1] = test system: entospletinib-resistant MV4-11 cells; assay: XTT cell proliferation assay, entospletinib-resistant MV4-11 cells; format: cell-based, human
[2] = target: Syk complex with FLT3, ERK1/2 and STAT3/5 in naïve MV4-11 cells (Homo sapiens, UniProt P43405); assay: Co-immunoprecipitation with anti-Syk antibody, naïve MV4-11 cells; format: cell-based; conditions: 5 μM
Syk in MV4-11 cells = Syk in MV4-11 cells (Homo sapiens, UniProt P43405); assay: WC36B-streptavidin pull down assay with immunoblotting; format: binding; conditions: WC36 10 μM, entospletinib 10 μM, ATP 1 mM

c1cn2cc(-c3ccc4cn[nH]c4c3)nc(Nc3ccc(N4CCOCC4)cc3)c2n1 [entospletinib]
inhibition at 20 µM ([1]; Homo sapiens, MV4-11, read-out: Imax of proliferation inhibition (XTT assay)): ≤ 50% | inhibition of proliferation (XTT assay) ([1]; entospletinib-resistant MV4-11 cells): could not effectively suppress the proliferation | scaffolding function of Syk (co-precipitation of FLT3, ERK1/2 and STAT3/5) [2]: little to no effect | competition with WC36B for Syk binding (Syk in MV4-11 cells): only WC36 was able to compete
